Reference: patent US10167270B2, “Substituted quinazoline compounds and uses thereof for modulating glucocerebrosidase activity” (Northwestern University, priority 2015, dated 2019)

The chains behind the UniProt entries cited, without tags or fusion partners. Residues count along the entry.
UniProt P04062, 40-536: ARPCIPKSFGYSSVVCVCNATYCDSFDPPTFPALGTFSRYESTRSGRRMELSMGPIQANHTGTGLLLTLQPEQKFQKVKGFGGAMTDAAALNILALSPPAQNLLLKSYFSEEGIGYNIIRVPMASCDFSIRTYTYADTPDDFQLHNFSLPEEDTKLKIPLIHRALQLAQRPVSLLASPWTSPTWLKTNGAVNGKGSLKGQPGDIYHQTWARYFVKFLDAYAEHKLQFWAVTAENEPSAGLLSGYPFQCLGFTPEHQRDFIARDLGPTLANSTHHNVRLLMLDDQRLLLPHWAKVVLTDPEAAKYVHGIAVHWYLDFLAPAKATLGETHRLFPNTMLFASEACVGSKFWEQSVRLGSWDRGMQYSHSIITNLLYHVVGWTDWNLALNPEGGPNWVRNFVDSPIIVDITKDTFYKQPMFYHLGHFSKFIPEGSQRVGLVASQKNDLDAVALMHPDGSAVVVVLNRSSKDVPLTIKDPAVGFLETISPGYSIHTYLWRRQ

Key:
[1] = target: Glucocerebrosidase (Homo sapiens (Human), UniProt P04062); assay: Glucocerebrosidase activity assay with blue substrate (4MU-Glc); format: biochemical; settings: marked (inh), inhibitor; read-out: IC50 or AC50 (inh)
Method: The compounds in DMSO solution 0.5 μL/well were transferred to a black 96-well plate. The final titration was 24 nM to 50 μM, 12 concentrations, 2 times dilution. 33.5 μL of enzyme solution (7.5 nM final concentration) was transferred to the wells. After 5 min of incubation at room temperature, the enzyme reaction was initiated by the addition of 33 μL/well blue substrate. Final concentrations of the blue substrate (4MU-Glc) was 1.5 mM. The blue substrate reaction was terminated by the addition of 33 μL/well stop solution (1 M NaOH and 1 M glycine mixture, pH 10) after 30 min of incubation at 37° C. The fluorescence was then measured in the Biotek Synergy H1 multi-mode plate reader with Ex=365 nm and Em=440 nm.
Additional compounds were prepared and tested according to the procedures provided in the examples above. Dose-response curves were prepared to determine IC50 or AC50 and compared to the known glucocerebrosidase activator NCGC00188758 (see Aflaki et al., Sci. Transl. Med. 6, 240ra273 (2014). Results are shown in the following table.
Additional substituted quinazoline compounds were prepared and tested according to the procedures provided in the examples above.

[2] = target: wild-type GCase (Homo sapiens (Human), UniProt P04062); assay: GCase enzyme activity assay (4MU-β-Glc, no taurocholate); format: biochemical
Method: In previous studies, high concentrations of taurocholate (4-10 mM) were used to improve the signal in GCase enzyme activity assays^16,27,28. […] Here we describe our modifications of the substituents on the quinazoline ring.
4-Methylumbelliferyl β-D-glucopyranoside (4MU-β-Glc), 4-methylumbelliferyl α-D-glucopyranoside,4-methylumbelliferyl α-D-galactopyranoside, and buffer components were purchased from Sigma-Aldrich (St. Louis, Mo.). The recombinant wild-type GCase enzyme velaglucerase alfa (Vpriv®, Shire Human Genetic Therapies, Inc.), acid α-glucosidase enzyme alglucosidase alfa (Lumizyme®, Genzyme Corporation), α-galactosidase A enzyme agalsidase beta (Fabrazyme®, Genzyme Corporation) were used in activity assays. […] A solution of 1 M sodium hydroxide and 1 M glycine (pH 10) was used as the stop solution for all three enzyme activity assays.
The compounds in DMSO solution (0.5 μL/well) were transferred to a black 96-well plate (the final titration started from 100 μM, a 12 or 24-point 2-fold dilution series). […] After 5 min of incubation at room temperature, the enzyme reaction was initiated by the addition of blue substrate (4MU-13-Glc) (33 μL/well). The final concentration of the blue substrate was 1.5 mM. The blue substrate reaction was terminated by the addition of 33 μL/well stop solution (1 M NaOH and 1 M glycine mixture, pH 10) after 30 min of incubation at 37° C. […]

| Compound | IC50 [1] [nM] | IC50 ([2]; pH 5.0, mean ± SD, read-out: IC50 pH 5.0) [nM] | IC50 ([2]; pH 7.0, mean ± SD, read-out: IC50 pH 7.0) [nM] |
| --- | --- | --- | --- |
| c1cncc(-c2nc(NC3CCc4ccccc4C3)c3ccccc3n2)c1 (single isomer, unassigned) [compound 80] | 6 |  |  |
| c1cncc(-c2nc(N[C@@H]3CCc4ccccc4C3)c3ccccc3n2)c1 [Compound 9b] |  | 30.1 ± 4.5 | 18.8 ± 2.5 |
| c1cncc(-c2nc(NC3CCc4ccccc4C3)c3ccccc3n2)c1 (centres unmarked) [compound 66] | 6 |  |  |
| c1cncc(-c2nc(N[C@@H]3CCc4ccccc4C3)c3ccccc3n2)c1 [compound 81] | 10 |  |  |

Where two headings read alike, the source gives them in different places.
